In general, IC50 refers to the concentration needed to halve the response being measured. A high value points to lower potency.

Sequences of proteins named here, by UniProt entry; tags and fusion partners are left off. A change or cut given only in a name is not applied to a line headed by its entry.
UniProt P22411: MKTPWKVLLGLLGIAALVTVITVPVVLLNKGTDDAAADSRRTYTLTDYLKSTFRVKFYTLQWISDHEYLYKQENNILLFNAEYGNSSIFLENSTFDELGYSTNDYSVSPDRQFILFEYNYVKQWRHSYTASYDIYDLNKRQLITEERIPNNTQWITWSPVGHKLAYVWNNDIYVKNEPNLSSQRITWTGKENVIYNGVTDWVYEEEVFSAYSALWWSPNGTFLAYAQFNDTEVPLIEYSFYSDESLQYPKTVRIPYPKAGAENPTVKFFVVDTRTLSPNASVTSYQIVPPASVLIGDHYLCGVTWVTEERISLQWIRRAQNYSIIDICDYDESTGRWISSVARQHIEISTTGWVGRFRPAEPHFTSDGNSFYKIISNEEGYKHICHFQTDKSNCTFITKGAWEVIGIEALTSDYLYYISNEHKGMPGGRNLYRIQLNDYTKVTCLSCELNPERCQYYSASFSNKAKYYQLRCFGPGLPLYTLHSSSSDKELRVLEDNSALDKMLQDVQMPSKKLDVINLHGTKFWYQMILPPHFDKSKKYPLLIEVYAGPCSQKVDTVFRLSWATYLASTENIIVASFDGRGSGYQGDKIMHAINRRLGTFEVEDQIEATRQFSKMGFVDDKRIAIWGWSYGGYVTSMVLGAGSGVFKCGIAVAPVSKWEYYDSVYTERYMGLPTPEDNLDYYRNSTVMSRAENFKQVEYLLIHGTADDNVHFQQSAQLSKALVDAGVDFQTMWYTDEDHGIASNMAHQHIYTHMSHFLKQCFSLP

From PMC3773436 (Evidence-based Complementary and Alternative Medicine : eCAM, 2013) come the findings set out here.

The target in this assay is T1, Porcine kidney DPP-IV (Sus scrofa, UniProt P22411).
T1 construct: purchased Sigma-Aldrich; host or cells: porcine kidney (tissue-derived, as named)
The experiment in a line: DPP-IV Glo Protease Assay (luminescence), DPP-IV inhibition. It counts as biochemical. Conditions: pure compounds, concentration based on molecular mass; means ± SEM. From the text:
All solvents used for phenolic extraction were HPLC-grade and were purchased from Fisher Scientific (Pittsburg, PA). Amberlite XAD-7 was purchased from Sigma-Aldrich (St. Louis, MO). Sephadex LH-20 was purchased from GE Life Sciences (Buckinghamshire, UK). […] DPP-IV Glo^TM Protease Assay kits were purchased from Promega (Madison, WI). […] All other reagents were of analytical grade.
Measurement of the activity and potential inhibition of DPP-IV, a type II membrane glycoprotein, was done using the DPP-IV Glo^TM Protease Assay following the manufacture's protocol (Promega, Madison, WI). Briefly, 50 μL of DPP-IV Glo^TM reagent was added to a white-walled 96-well plate containing 50 μL of blank, positive control, or treatment. The blank contained the vehicle only while positive control contained the vehicle and purified DPP-IV enzyme (at a final concentration of 1 ng/mL). […] The content of the wells was gently mixed using an Ultra Microplate Reader (Biotek Instruments, Winooski, VT) at medium intensity for 4 s. […] This signal in RLU was measured after 30 min in the Ultra Microplate Reader and then compared to the blank. […] IC50 values were calculated based on the molecular mass of each compound or C3G as the equivalent for ANC-enriched fractions.
Data were expressed as means of independent duplicates with at least three replicates. […]

On to `CC[C@H](C)[C@H](N)C(=O)N1CCC[C@H]1C(=O)N[C@H](C(=O)O)[C@@H](C)CC` [Diprotin A, Ile-Pro-Ile, reference compound], for which half-maximal inhibition (IC50) was put at 4.21 µM.
